Target: Shisa6::mCherry (UniProt Q3UH99)
Experiment: FRET or BRET; FRET by fluorescence lifetime imaging (FLIM) of eGFP in living cultured hippocampal neurons at 37 °C; donor PSD-95::eGFP, acceptor Shisa6::mCherry; control: PSD-95::eGFP only

Amino acid sequences for entries named in this document (tags omitted). Residues count along the entry.
UniProt Q3UH99, 31-525: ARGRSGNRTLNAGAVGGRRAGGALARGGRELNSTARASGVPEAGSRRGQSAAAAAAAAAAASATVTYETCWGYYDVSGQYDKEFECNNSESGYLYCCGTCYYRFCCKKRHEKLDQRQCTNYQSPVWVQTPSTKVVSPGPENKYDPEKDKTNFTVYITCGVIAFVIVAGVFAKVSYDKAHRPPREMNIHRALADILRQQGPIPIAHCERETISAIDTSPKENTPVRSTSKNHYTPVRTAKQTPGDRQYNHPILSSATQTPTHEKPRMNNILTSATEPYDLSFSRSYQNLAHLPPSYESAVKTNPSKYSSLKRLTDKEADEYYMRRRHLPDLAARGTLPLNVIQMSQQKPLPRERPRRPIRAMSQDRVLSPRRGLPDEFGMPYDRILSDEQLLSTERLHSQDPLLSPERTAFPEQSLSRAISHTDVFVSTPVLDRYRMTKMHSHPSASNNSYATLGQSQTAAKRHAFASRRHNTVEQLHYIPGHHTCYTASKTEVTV
UniProt P31016, whole entry: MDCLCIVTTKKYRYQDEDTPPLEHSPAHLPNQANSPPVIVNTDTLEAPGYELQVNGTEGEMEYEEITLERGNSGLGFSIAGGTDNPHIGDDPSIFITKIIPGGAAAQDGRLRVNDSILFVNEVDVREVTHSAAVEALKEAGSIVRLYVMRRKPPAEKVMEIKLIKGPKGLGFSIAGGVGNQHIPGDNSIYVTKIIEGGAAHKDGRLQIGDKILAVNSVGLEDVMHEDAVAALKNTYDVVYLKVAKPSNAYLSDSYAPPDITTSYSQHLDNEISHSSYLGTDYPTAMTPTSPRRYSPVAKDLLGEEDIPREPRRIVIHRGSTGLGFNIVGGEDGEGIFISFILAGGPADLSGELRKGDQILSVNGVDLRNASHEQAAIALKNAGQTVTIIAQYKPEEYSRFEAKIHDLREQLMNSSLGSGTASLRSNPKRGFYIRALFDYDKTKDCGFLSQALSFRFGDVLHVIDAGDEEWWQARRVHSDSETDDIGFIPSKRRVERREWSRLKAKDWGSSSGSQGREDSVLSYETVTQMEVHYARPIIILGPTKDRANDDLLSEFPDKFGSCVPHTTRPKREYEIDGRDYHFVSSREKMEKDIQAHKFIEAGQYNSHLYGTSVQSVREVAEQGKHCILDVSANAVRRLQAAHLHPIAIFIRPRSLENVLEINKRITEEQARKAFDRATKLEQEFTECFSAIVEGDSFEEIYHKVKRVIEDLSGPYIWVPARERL

Q: Which lifetime of eGFP in dendritic spines (control 2.381 ns) does the source give for “PSD-95::eGFP (from UniProt P31016 1-724) (natural protein)” here?
A: 2.25 ns

Q: What about the lifetime of eGFP in the dendritic shaft (control 2.563 ns) of the same substance?
A: 2.46 ns

From paper PMC4778035
